In patent US10030020B2, “Spirocycle compounds and methods of making and using same” (Abide Therapeutics, Inc., priority 2016, dated 2018) one finds IC50 data, which are given here for 11 molecules.

Protein sequences, listed by entry. Tags and fused reporters are not part of them.
UniProt O35678, whole entry: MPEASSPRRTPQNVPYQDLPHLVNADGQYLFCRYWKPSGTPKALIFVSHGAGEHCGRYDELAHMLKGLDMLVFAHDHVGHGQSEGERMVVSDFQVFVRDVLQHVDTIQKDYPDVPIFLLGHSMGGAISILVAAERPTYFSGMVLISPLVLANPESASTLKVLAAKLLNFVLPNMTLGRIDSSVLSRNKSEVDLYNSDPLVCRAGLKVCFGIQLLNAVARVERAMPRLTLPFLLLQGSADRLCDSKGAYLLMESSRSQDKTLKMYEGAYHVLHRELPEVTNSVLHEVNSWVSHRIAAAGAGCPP

The test deals with MAGL (Mus musculus (Mouse), UniProt O35678). In words: In vitro competitive activity-based protein profiling (mouse brain membrane fraction or cell lysates), MAGL band. Format: biochemical. The settings on record: mouse proteome, competitive ABPP. How it is done:
In Vitro Competitive Activity-Based Protein Profiling.
Proteomes (mouse brain membrane fraction or cell lysates) (50 μL, 1.0 mg/mL total protein concentration) were preincubated with varying concentrations of inhibitors at 37° C. After 30 min, FP—Rh (1.0 μL, 50 μM in DMSO) was added and the mixture was incubated for another 30 min at 37° C. Reactions were quenched with SDS loading buffer (50 μL-4×) and run on SDS-PAGE.

`COc1ccc(CN2CCCC23CCN(C(=O)OC(C(F)(F)F)C(F)(F)F)CC3)cc1` [Example 1, 1,1,1,3,3,3-Hexafluoropropan-2-yl 1-(4-methoxybenzyl)-1,8-diazaspiro[4.5]decane-8-carboxylate] returned an IC50 of 100 to 1000 nM.

As to `O=C(OC(C(F)(F)F)C(F)(F)F)N1CCC2(CCCN2Cc2ccc(OCCN3CCOCC3)cc2)CC1` [Example 14, 1,1,1,3,3,3-Hexafluoropropan-2-yl 1-(4-(2-morpholinoethoxy)benzyl)-1,8-diazaspiro[4.5]decane-8-carboxylate], the IC50 is 100 to 1000 nM.

`O=C(OC(C(F)(F)F)C(F)(F)F)N1CCC2(CCCN2Cc2cc(N3CCC(C(F)(F)F)CC3)cc(C(F)(F)F)c2)CC1` [Example 44, 1,1,1,3,3,3-Hexafluoropropan-2-yl 1-(3-(trifluoromethyl)-5-(4-(trifluoromethyl)piperidin-1-yl)benzyl)-1,8-diazaspiro[4.5]decane-8-carboxylate]: the IC50 was 100 to 1000 nM.

The molecule `COc1cc(Cl)ccc1CN1CC2(CCN(C(=O)OC(C(F)(F)F)C(F)(F)F)CC2)CC1(C)C` [Example 49, 1,1,1,3,3,3-Hexafluoropropan-2-yl 2-(4-chloro-2-methoxybenzyl)-3,3-dimethyl-2,8-diazaspiro[4.5]decane-8-carboxylate] yielded a concentration for half-maximal inhibition (IC50) of 100 to 1000 nM.

In turn, `CC1(C)CC2(CCN(C(=O)OC(C(F)(F)F)C(F)(F)F)CC2)CN1Cc1c(N2CC3COCC3C2)cccc1C(F)(F)F` (centres unmarked) [Example 57, 1,1,1,3,3,3-Hexafluoropropan-2-yl 3,3-dimethyl-2-(2-(tetrahydro-1H-furo[3,4-c]pyrrol-5(3H)-yl)-6-(trifluoromethyl)benzyl)-2,8-diazaspiro[4.5]decane-8-carboxylate] yielded an IC50 of 100 to 1000 nM.

On to `O=C(OC(C(F)(F)F)C(F)(F)F)N1CCC2(CCCN2Cc2ccccc2)CC1` [Example 63, 1,1,1,3,3,3-Hexafluoropropan-2-yl 1-benzyl-1,8-diazaspiro[4.5]decane-8-carboxylate], for which the IC50 was 100 to 1000 nM.

On to `O=C(OC(C(F)(F)F)C(F)(F)F)N1CCC2(CCCN2Cc2cccc(N3CCOCC3)c2)CC1` [Example 69, 1,1,1,3,3,3-Hexafluoropropan-2-yl 1-(3-morpholinobenzyl)-1,8-diazaspiro[4.5]decane-8-carboxylate], for which the IC50 fell in the range of 100 to 1000 nM.

On to `O=C(OC(C(F)(F)F)C(F)(F)F)N1CCC2(CCCN2Cc2cccc(N3CCN(C4CC4)CC3)c2Cl)CC1` [Example 115, 1,1,1,3,3,3-Hexafluoropropan-2-yl 1-(2-chloro-3-(4-cyclopropylpiperazin-1-yl)benzyl)-1,8-diazaspiro[4.5]decane-8-carboxylate], for which the IC50 fell in the range of 100 to 1000 nM.

`O=C(OC(C(F)(F)F)C(F)(F)F)N1CCC2(CCCN2Cc2cccc(N3CCC4(CCOCC4)C3)c2Cl)CC1` [Example 117, 1,1,1,3,3,3-Hexafluoropropan-2-yl 1-(2-chloro-3-(8-oxa-2-azaspiro[4.5]decan-2-yl)benzyl)-1,8-diazaspiro[4.5]decane-8-carboxylate]: the IC50 is 100 to 1000 nM.

Turning to `O=C(OC(C(F)(F)F)C(F)(F)F)N1CCC2(CCCN2Cc2ccc(N3CCOCC3)c(Cl)c2)CC1` [Example 127, 1,1,1,3,3,3-Hexafluoropropan-2-yl 1-(3-chloro-4-morpholinobenzyl)-1,8-diazaspiro[4.5]decane-8-carboxylate], the IC50 was 100 to 1000 nM.

As for `O=C(OC(C(F)(F)F)C(F)(F)F)N1CCC2(CCN(Cc3ccc(N4CCOCC4)c(Cl)c3)C2)CC1` [Example 138, 1,1,1,3,3,3-Hexafluoropropan-2-yl 2-(3-chloro-4-morpholinobenzyl)-2,8-diazaspiro[4.5]decane-8-carboxylate], the IC50 lay within 100 to 1000 nM.
